In article PMC4909201 (PLoS ONE, 2016):

Experiments:
[1] = molecular target: thrombin binding to immobilized γA/γ′-fibrin (Homo sapiens, UniProt P00734); assay: SPR: effect of active site inhibitors on thrombin binding to immobilized γA/γ′-fibrin
[2] = molecular target: thrombin binding to immobilized γA/γA-fibrin (Homo sapiens, UniProt P00734); assay: SPR: effect of active site inhibitors on thrombin binding to immobilized γA/γA-fibrin
[3] = molecular target: thrombin binding to immobilized factor Va (Homo sapiens, UniProt P00734); assay: SPR: effect of active site inhibitors on thrombin binding to immobilized factor Va
[4] = molecular target: T1, 125I-thrombin binding to γA/γ′-fibrin clots (Homo sapiens, UniProt P00734); assay: 125I-thrombin binding to γA/γ′-fibrin clots
T1 construct: purchased Enzyme Research Laboratories (South Bend, IN)

thrombin = thrombin inhibition; cited from earlier work
[5] = molecular target: T2, 125I-thrombin binding to γA/γA-fibrin clots (Homo sapiens, UniProt P00734); assay: 125I-thrombin binding to γA/γA-fibrin clots
T2 construct: purchased Enzyme Research Laboratories (South Bend, IN)

[6] = molecular target: T3, thrombin binding to GpIbα269-286ppp (Homo sapiens, UniProt P00734); assay: SPR: effect of active site inhibitors on thrombin binding to immobilized GpIbα269-286ppp
T3 construct: purchased Enzyme Research Laboratories (South Bend, IN)
Procedure: Between runs, flow cells were regenerated with 1 M NaCl for 30 s. […] EC50 values were determined as above. […] Binding affinities were calculated as described above.

With CC1CNc2c(cccc2S(=O)(=O)N[C@@H](CCCNC(=N)N)C(=O)N2CC[C@@H](C)C[C@@H]2C(=O)O)C1 (stereo partly shown) [Argatroban, argatroban] as the compound, how does the EC50 [1] read?
Its EC50 is 59.4 ± 5.1 nM.

And the EC50 [2]?
Its EC50 is 62.4 ± 4.8 nM.

And the EC50 [3]?
The EC50 was 23.4 ± 8.8 nM.

What about the Ki [4] of the same compound?
Its Ki is 7 ± 5.6 nM.

What about the Ki (thrombin) of the same compound?
Its Ki is 19 nM.

What about the Ki [5] of the same compound?
The Ki was 2.4 ± 1.9 nM.

What about the EC50 [6] of the same compound?
Its EC50 is 161 ± 2.6 nM.
